20 compounds from PubChem BioAssay AID522 (The Scripps Research Institute Molecular Screening Center, 2006) can be followed below.

By UniProt entry, the sequences of proteins in these tests, tags left out.
UniProt Q13285, whole entry, looked up: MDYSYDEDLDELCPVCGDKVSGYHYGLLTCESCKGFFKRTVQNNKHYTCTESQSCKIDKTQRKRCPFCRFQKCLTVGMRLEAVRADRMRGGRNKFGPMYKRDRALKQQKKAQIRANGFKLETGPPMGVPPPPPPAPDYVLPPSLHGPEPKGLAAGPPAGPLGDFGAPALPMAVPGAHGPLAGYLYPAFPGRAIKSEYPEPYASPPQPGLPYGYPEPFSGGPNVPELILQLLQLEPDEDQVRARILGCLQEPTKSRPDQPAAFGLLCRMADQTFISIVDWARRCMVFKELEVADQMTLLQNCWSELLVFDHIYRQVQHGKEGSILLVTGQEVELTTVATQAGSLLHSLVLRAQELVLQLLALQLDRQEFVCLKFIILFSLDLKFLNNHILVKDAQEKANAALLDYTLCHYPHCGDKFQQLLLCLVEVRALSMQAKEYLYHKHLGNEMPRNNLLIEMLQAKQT

This is a selection; strong and weak results do not stand in their true shares. Active and inactive are the calls of the source.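 The calls were made as follows: active = activation above the mean activation of all tested compounds plus 3 SD (cut at about 50% in these data); inactive = the rest.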

In this experiment the target is Steroidogenic factor 1 (Homo sapiens) (UniProt Q13285). The experiment can be described thus: SF-1 ligand-binding domain transactivation enhancers – cell-based, CHO-K1, Gal4-SF-1 LBD, luciferase luminescence, primary screen (AID 522). Particulars: CHO-K1 Gal4-SF-1 LBD luciferase reporter; at 10 µM; stronger effect = higher value; % increase over DMSO SF-1-specific signal. In short, it runs like this: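 Test system: transient Gal4-SF-1 LBD reporter, CHO-K1; Amount: 4,000 CHO-K1 cells per well; Doses: 10 µM only; Timing: compound exposure 20 h at 37 °C; Signal: luciferase light emission; Read-out basis: percent activation relative to DMSO median and mock-transfected background; Control set: DMSO negative control and −SF1 background wells; Replicates: one test per compound.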
For the compound `Cc1c2non([O-])c-2c(C)[n+](=O)[n+]1[O-]`, the activation is inactive: -24.4%. With `CCc1nc2c(n1)c1c(non1O)c1c2no[n+]1[O-]` the figure was inactive: -12.7%; with `O=C(OC1CN2CCC1CC2)c1cccc(Cl)c1` (stereo not given), inactive: -7.2%.

`c1nnnn1CCn1cnnn1`: the activation was inactive: -17.9%. As for `O=P(Nc1nccs1)(c1ccccc1)c1ccccc1`, the figure is inactive: -6.5%; as for `O=P1(Nc2nc3ccc(Cl)cc3s2)COc2ccccc2O1` (stereo not given), inactive: 17.8%.

Regarding `COC(=O)c1cc2c(s1)N=C(c1ccccc1)N(C)P2(=O)N1CCOCC1` (stereo not given), the activation was inactive: -2.5%. As for `CCOP1(=S)c2c(C)nn(CCC#N)c2N=C(c2ccc(F)cc2)N1C` (stereo not given), the activation is inactive: 3.9%. With `CCOP1(=S)c2c(C)nn(CCC#N)c2N=C(c2ccccc2F)N1C` (stereo not given) the figure was inactive: -6.7%; with `O=P(Nc1nccs1)(c1ccccc1)c1nc2ccccc2s1` (stereo not given), inactive: -14.5%; with `Cc1cccc(OCC(=O)OC2CN3CCC2CC3)c1` (stereo not given), inactive: 22.2%. Consider `Clc1n[nH]nc1-c1nn[nH][15n]1`, for which the activation was inactive: 29.1%. Turning to `O=P1(Nc2ccccn2)COc2ccccc2OC1`, the activation was inactive: -14.4%. Turning to `Cc1ccc(OCC(=O)OC2CN3CCC2CC3)cc1` (stereo not given), the activation is inactive: 2.1%. With `O=P1(Nc2ccc(Br)cn2)COc2ccccc2OC1` the figure was inactive: 1.6%. With `O=P1(Nc2ncccn2)COc2ccccc2OC1` the figure was inactive: 3.2%. With `Cc1nn(-c2ccccc2)c2c1P(=O)(N1CCOCC1)N(C)C(c1ccccc1)=N2` (stereo not given) the figure was inactive: -11.5%. `O=C(COc1ccccc1)OC1CN2CCC1CC2` (stereo not given): the activation was inactive: -9.8%. For the compound `COP1(=S)c2c(C)nn(CCC#N)c2N=C(c2ccc(F)cc2)N1C` (stereo not given), the activation was inactive: 1.6%. With `O=C(OC1CN2CCC1CC2)C12CC3CC(CC(C3)C1)C2` (stereo not given) the figure was inactive: 9.2%.
